Data reported in PMC4004761 (Journal of medicinal chemistry, 2013).

Assay: in vivo
Conditions: mouse, ip

Q: Which TD50 does the source give for NS(=O)(=O)NC[C@H]1COc2cc(Cl)ccc2O1 [compound 4, (2S)-(–)-N-((6-Chloro-2,3-dihydrobenzo[1,4]dioxin-2-yl)methyl)sulfamide] here?
A: 355 mg/kg
